Assay results: patent US20240270859A1

Experiments:
[1] = biological target: human TNFα (TNF-H5228 of Acro Biosystems) (human) (UniProt P01375); assay: cell-based or functional assay
[2] = biological target: human OX40L protein (OX40L-his), Acro Biosystems Cat #OXL-H52Q8 (human) (UniProt P23510); assay: cell-based or functional assay

| IC50 (nM), TNFα blockade assay (luminescence of NFκB-RE HEK293 cells) [1] | IC50 (nM), OX40L blockade assay (luminescence of NFκB-luc2/OX40 Jurkat cells) [2] | Substance |
| --- | --- | --- |
| 0.063 nM |  | reference anti-TNFα antibody Ref. TNFαi (VH and VL of Humira) |
| 0.057 nM |  | bispecific antibody TNFαi-02C09 HC |
| 0.054 nM | 0.8 nM | bispecific antibody TNFαi-I3F07 HC |
